Laboratory results: publication PMC4332549 (ChemMedChem, 2012)

Amino acid sequences for entries named in this document (tags omitted). A change or cut given only in a name is not applied to a line headed by its entry.
UniProt P47211: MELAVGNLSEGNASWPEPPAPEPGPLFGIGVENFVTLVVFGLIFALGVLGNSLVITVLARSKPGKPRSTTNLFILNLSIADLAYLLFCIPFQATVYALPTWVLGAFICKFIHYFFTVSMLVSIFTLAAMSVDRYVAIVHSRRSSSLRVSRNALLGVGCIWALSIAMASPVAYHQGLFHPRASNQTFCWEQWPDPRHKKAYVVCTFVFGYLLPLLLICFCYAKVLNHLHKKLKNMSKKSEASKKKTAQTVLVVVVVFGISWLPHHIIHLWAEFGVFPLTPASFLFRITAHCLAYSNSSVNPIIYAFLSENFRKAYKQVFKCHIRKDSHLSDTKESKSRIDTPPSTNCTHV

Columns and labels:
[1] = molecular target: hGAL1 (human galanin receptor GalR1) (Homo sapiens, UniProt P47211); test: Competitive binding assay, Eu-labeled galanin, time-resolved fluorescence
[2] = molecular target: T1, hGAL2 (human galanin receptor GalR2) (Homo sapiens, UniProt O43603); test: as above
T1 sequence (O43603 1-387): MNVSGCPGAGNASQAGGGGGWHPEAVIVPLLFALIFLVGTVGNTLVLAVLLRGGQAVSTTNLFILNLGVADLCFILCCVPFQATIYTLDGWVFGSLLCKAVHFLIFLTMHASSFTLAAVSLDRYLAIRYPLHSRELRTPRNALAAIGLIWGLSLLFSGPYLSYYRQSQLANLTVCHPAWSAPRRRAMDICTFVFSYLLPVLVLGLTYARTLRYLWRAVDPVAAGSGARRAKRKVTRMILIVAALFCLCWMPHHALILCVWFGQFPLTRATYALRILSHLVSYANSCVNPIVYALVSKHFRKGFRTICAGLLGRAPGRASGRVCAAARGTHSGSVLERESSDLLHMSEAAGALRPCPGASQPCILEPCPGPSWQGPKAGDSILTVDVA

`CCCCCCCCCCCCCCCC(=O)NCCCC[C@H](NC(=O)[C@@H](CCCCN)NC(=O)[C@@H](CCCCN)NC(=O)[C@@H]1CCCN1C(=O)CNC(=O)[C@H](CC(C)C)NC(=O)[C@H](CC(C)C)NC(=O)[C@H](Cc1ccc(O)cc1)NC(=O)CNC(=O)[C@H](C)NC(=O)[C@H](CO)NC(=O)[C@H](CC(N)=O)NC(=O)[C@H](CC(C)C)NC(=O)[C@@H](NC(=O)[C@H](Cc1c[nH]c2ccccc12)NC(=O)CNC)[C@@H](C)O)C(=O)N[C@H](CCCCN)C(N)=O` [Gal-B9] was tested, and the Ki [1] was 0.9 ± 0.2 nM and the Ki [2] was 15 ± 8.5 nM.
